Reference: patent US7759499B2, “Compounds as inhibitors of hepatitis C virus NS3 serine protease” (Schering Corporation, priority 2004, dated 2010)

Amino acid sequences for entries named in this document (tags omitted). Residues count along the entry.
UniProt P27958, 1027-1657: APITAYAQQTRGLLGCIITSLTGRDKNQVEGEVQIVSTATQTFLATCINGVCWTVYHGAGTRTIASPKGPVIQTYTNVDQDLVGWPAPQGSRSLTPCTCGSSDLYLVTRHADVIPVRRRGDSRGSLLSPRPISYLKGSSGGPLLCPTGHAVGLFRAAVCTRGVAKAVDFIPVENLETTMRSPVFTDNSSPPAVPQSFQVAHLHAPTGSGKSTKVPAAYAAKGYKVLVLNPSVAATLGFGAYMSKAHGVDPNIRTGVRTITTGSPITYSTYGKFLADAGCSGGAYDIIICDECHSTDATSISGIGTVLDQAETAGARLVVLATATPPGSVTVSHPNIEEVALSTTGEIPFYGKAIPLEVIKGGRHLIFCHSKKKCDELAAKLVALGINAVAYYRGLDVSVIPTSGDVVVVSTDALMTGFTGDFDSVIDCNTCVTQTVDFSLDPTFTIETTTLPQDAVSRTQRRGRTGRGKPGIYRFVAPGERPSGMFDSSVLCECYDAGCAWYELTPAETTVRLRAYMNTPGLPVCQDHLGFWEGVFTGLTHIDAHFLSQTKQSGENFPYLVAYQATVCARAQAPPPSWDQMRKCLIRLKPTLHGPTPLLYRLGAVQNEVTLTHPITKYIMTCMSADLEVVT
UniProt P27958, 1658-1711: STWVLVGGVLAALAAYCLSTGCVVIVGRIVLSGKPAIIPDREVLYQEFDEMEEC

molecular target: Recombinant heterodimeric HCV NS3/NS4A protease (strain 1a) (Hepatitis C virus genotype 1a, UniProt P27958); assay: Spectrophotometric assay for HCV protease inhibitory activity; format: biochemical; details: Table 3, range

CC(C)[C@@H](CNS(=O)(=O)c1ccccc1)NC(=O)N[C@H](C(=O)N1C[C@H]2[C@@H]([C@H]1C(=O)NC(CC1CCC1)C(=O)C(N)=O)C2(C)C)C(C)(C)C (stereo partly drawn) [Compound 12001] and CC(C)[C@@H](CNS(=O)(=O)c1ccccc1)NC(=O)N[C@H](C(=O)N1C[C@H]2[C@@H]([C@H]1C(=O)NC(CC1CC1)C(=O)C(N)=O)C2(C)C)C(C)(C)C (stereo partly drawn) [Compound 12003] cannot be ordered by Ki: ≤ 75 nM for the first, ≤ 75 nM for the second.

C=CCNC(=O)C(=O)C(CC1CC1)NC(=O)[C@@H]1[C@@H]2[C@H](CN1C(=O)[C@@H](NC(=O)NC1(CNS(C)(=O)=O)CCCCC1)C(C)(C)C)C2(C)C (stereo partly drawn) [Compound 12002] and CC(C)(C)[C@H](NC(=O)NC1(CNS(C)(=O)=O)CCCCC1)C(=O)N1C[C@H]2[C@@H]([C@H]1C(=O)NC(CC1CCC1)C(=O)C(N)=O)C2(C)C (stereo partly drawn) [Compound 12020] cannot be ordered by Ki: ≤ 75 nM for the first, ≤ 75 nM for the second.

CC(C)CC(C)(CNS(=O)(=O)c1ccccc1)NC(=O)N[C@H](C(=O)N1C[C@H]2[C@@H]([C@H]1C(=O)NC(CC1CC1)C(=O)C(N)=O)C2(C)C)C(C)(C)C (stereo partly drawn) [Compound 12005] and CC(C)CC(C)(CNS(=O)(=O)c1ccccc1)NC(=O)N[C@H](C(=O)N1C[C@H]2[C@@H]([C@H]1C(=O)NC(CC1CCC1)C(=O)C(N)=O)C2(C)C)C(C)(C)C (stereo partly drawn) [Compound 12006] fall in the same range of Ki: 75 to 250 nM for the first, 75 to 250 nM for the second.

CC(C)(C)[C@H](NC(=O)NC1(CNS(=O)(=O)c2ccccc2)CCCC1)C(=O)N1C[C@H]2[C@@H]([C@H]1C(=O)NC(CC1CC1)C(=O)C(N)=O)C2(C)C (stereo partly drawn) [Compound 12007] and CC(C)(C)[C@H](NC(=O)NC1(CNS(=O)(=O)c2ccccc2)CCCCC1)C(=O)N1C[C@H]2[C@@H]([C@H]1C(=O)NC(CC1CC1)C(=O)C(N)=O)C2(C)C (stereo partly drawn) [Compound 12008] cannot be ordered by Ki: ≤ 75 nM for the first, ≤ 75 nM for the second.

CC(C)[C@@H](CNS(=O)(=O)c1cccs1)NC(=O)N[C@H](C(=O)N1C[C@H]2[C@@H]([C@H]1C(=O)NC(CC1CCC1)C(=O)C(N)=O)C2(C)C)C(C)(C)C (stereo partly drawn) [Compound 12009] and CC(C)[C@@H](CNS(=O)(=O)c1cccs1)NC(=O)N[C@H](C(=O)N1C[C@H]2[C@@H]([C@H]1C(=O)NC(CC1CC1)C(=O)C(N)=O)C2(C)C)C(C)(C)C (stereo partly drawn) [Compound 12013] cannot be ordered by Ki: ≤ 75 nM for the first, ≤ 75 nM for the second.

CC(C)[C@@H](CNS(=O)(=O)C1CC1)NC(=O)N[C@H](C(=O)N1C[C@H]2[C@@H]([C@H]1C(=O)NC(CC1CCC1)C(=O)C(N)=O)C2(C)C)C(C)(C)C (stereo partly drawn) [Compound 12010] and CC(C)[C@@H](CNS(=O)(=O)C1CC1)NC(=O)N[C@H](C(=O)N1C[C@H]2[C@@H]([C@H]1C(=O)NC(CC1CC1)C(=O)C(N)=O)C2(C)C)C(C)(C)C (stereo partly drawn) [Compound 12012] cannot be ordered by Ki: ≤ 75 nM for the first, ≤ 75 nM for the second.

Compared with C=CCNC(=O)C(=O)C(CC1CC1)NC(=O)[C@@H]1[C@@H]2[C@H](CN1C(=O)[C@@H](NC(=O)N[C@H](CNS(=O)(=O)C1CC1)C(C)C)C(C)(C)C)C2(C)C (stereo partly drawn) [Compound 12014], C=CCNC(=O)C(=O)C(CC1CC1)NC(=O)[C@@H]1[C@@H]2[C@H](CN1C(=O)[C@@H](NC(=O)N[C@H](CNS(C)(=O)=O)C(C)C)C(C)(C)C)C2(C)C (stereo partly drawn) [Compound 12019] is lower in Ki: > 250 nM for the first, ≤ 75 nM for the second. The second binds more tightly here.

Compared with C=CCNC(=O)C(=O)C(CCCC)NC(=O)[C@@H]1[C@@H]2[C@H](CN1C(=O)[C@@H](NC(=O)N[C@H](CNS(=O)(=O)c1ccccc1)C(C)C)C(C)(C)C)C2(C)C (stereo partly drawn) [Compound 12015], C=CCNC(=O)C(=O)C(CCC)NC(=O)[C@@H]1[C@@H]2[C@H](CN1C(=O)[C@@H](NC(=O)N[C@H](CNS(C)(=O)=O)[C@@H](C)CC)C(C)(C)C)C2(C)C (stereo partly drawn) [Compound 12021] is lower in Ki: > 250 nM for the first, ≤ 75 nM for the second. The second binds more tightly here.

C=CCNC(=O)C(=O)C(CC1CC1)NC(=O)[C@@H]1[C@@H]2[C@H](CN1C(=O)[C@@H](NC(=O)N[C@H](CNS(=O)(=O)c1cccs1)C(C)C)C(C)(C)C)C2(C)C (stereo partly drawn) [Compound 12016] and CC(C)[C@@H](CNS(C)(=O)=O)NC(=O)N[C@H](C(=O)N1C[C@H]2[C@@H]([C@H]1C(=O)NC(CC1CCC1)C(=O)C(N)=O)C2(C)C)C(C)(C)C (stereo partly drawn) [Compound 12018] cannot be ordered by Ki: 75 to 250 nM for the first, ≤ 75 nM for the second.

In the case of CC(C)(C)[C@H](NC(=O)NC1(CNS(=O)(=O)C2CC2)CCCCC1)C(=O)N1C[C@H]2[C@@H]([C@H]1C(=O)NC(CC1CC1)C(=O)C(N)=O)C2(C)C (stereo partly drawn) [Compound 12017], the Ki is reported as ≤ 75 nM.

same assay, conditions: Table 5A, range

CCCCC(NC(=O)[C@@H]1[C@@H]2[C@H](CN1C(=O)[C@@H](NC(=O)N[C@H](CN(CC)S(=O)(=O)CC)C(C)(C)C)C1Cc3ccccc3C1)C2(C)C)C(=O)C(=O)NCCC (stereo partly drawn) [Compound 11403] and CCCCC(NC(=O)[C@@H]1[C@@H]2[C@H](CN1C(=O)[C@@H](NC(=O)N[C@H](CN(CC)S(=O)(=O)CC)C(C)(C)C)C1Cc3ccccc3C1)C2(C)C)C(=O)C(=O)NC1CC1 (stereo partly drawn) [Compound 11404] cannot be ordered by Ki: ≤ 75 nM for the first, ≤ 75 nM for the second.
